Biological target: S1P(983)-C, purified secreted enzyme (hamster)

AMC liberated from Ac-VFRSLK-MCA by S1P(983)-C, % control, at 0.0003 mM aprotinin: 89 % control
Substance: aprotinin (from UniProt P00974)
